Molecular target: T1, E-selectin (Homo sapiens, UniProt P16581)
T1 sequence (P16581 22-556 limits assumed): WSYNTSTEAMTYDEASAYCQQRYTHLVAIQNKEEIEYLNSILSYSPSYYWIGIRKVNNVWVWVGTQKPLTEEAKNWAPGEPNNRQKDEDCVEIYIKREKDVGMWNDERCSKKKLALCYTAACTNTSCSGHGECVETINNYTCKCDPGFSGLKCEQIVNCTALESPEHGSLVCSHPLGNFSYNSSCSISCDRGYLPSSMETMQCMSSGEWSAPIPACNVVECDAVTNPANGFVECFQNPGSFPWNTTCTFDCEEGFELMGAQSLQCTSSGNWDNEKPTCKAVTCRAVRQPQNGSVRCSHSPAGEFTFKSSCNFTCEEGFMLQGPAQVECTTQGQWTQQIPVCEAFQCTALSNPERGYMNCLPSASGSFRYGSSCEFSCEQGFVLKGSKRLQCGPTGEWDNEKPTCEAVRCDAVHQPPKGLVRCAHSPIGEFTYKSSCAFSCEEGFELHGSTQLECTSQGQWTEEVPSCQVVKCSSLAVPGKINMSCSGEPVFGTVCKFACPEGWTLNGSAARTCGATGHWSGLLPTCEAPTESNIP
Assay: Inhibition of HL-60 adhesion to recombinant soluble E-selectin coated plates (competitive inhibition assay)
Conditions: monomers, HL-60 adhesion to immobilized E-selectin, 15 min (FIG. 3A); read-out: Inhibition of 50% binding (IC50) value
Description: FIG. 3A-C depicts percentage of inhibition of HL-60 adhesion to recombinant soluble E-selectin coated plates is determined using ELISA plate reader, as described previously (Ramphal J Y, Hiroshige M, Lou B, Gaudino J J, Hayashi M, Chen S M, et al. Ligand interactions with Eselectin. Identification of a new binding site for recognition of N-acyl aromatic glucosamine substituents of sialyl Lewis X. J Med Chem 1996; 39(7):1357-60.). A plate with immobilized Eselectin is exposed to HL-60 cells (which express the natural sLe^x ligand on the cell membrane) in the presence and absence of P-sLe^x, P-QA and pHPMA for 15 min at different concentrations.
The percentage of bound HL-60 cells is determined with o-phenylenediamine as a substrate for myeloperoxidases released from lysed cells. […]
Affinity of Esbp and P-Esbp to E-selectin was evaluated by a competitive inhibition assay of HL-60 to immobilized E-selectin. […]
The percentage of inhibition of HL-60 adhesion to recombinant soluble E-selectin coated plates is studied using ELISA plate reader, as described previously (Ramphal J Y, Hiroshige M, Lou B, Gaudino J J, Hayashi M, Chen S M, et al. Ligand interactions with E-selectin. Identification of a new binding site for recognition of N-acyl aromatic glucosamine substituents of sialyl Lewis X. J Med Chem 1996; 39(7):1357-60.). […]

sialyl Lewis X [sLe^x]
IC50: 1.5 mM

From US9867884B2, “Vascular delivery systems” (Ben-Gurion University of the Negev Research and Development …, priority 2008, dated 2018)
